# Only a part is listed here, and it is no random draw. Records with an inconclusive call do not appear. The source made the active and inactive calls. Calls follow the shape of the dose curve; as a rule, active = well fitted inhibition curve with a large enough effect; inconclusive = small, poorly fitted or top-dose-only effect, or effect the other way, or another doubt; inactive = no such curve, though single readings can be large or run the other way.
# Test: Nrf2 qHTS screen for inhibitors: counterscreen for cytotoxicity
# Conditions: A549 ARE-Fluc cells, CellTiter-Fluor viability, 18-24 h; series mostly up to 46 µM; activity change, negative = cytotoxicity: at the top concentration
# Source text: NIH Molecular Libraries Probe Production Network [MLPCN]
# NIH Chemical Genomics Center [NCGC]
# Assay Provider: Shyam Biswal, Johns Hopkins University
# Nrf2 is a transcription factor that maintains cellular redox homoestasis and protects cells from xenobiotics. Nrf2 binds to the antioxidant response element (ARE) to induce gene expression of a broad spectrum of genes that encode for antioxidants. […] Finding a small molecule that act as an inhibitor of Nrf2 function would represent a novel therapeutic target that could lead to improvement in survival of patients undergoing chemo- and/or radio- therapy.
# So here we implemented a counterscreen to weed out the cytotoxic compounds.
# 1. Shibata, T., et al., Genetic Alteration of Keap1 Confers Constitutive Nrf2 Activation and Resistance to Chemotherapy in Gallbladder Cancer. Gastroenterology, 2008.
# 2. Sjoblom, T., et al., The consensus coding sequences of human breast and colorectal cancers. Science, 2006. 314(5797): p. 268-74.
# NCGC Assay Protocol Summary:
# A concentration-response assay was performed with A549 ARE_Fluc cells which are suspended in 5% FBS OPTI-MEM. Five uL were dispensed into 1536-well white TC-treated plate using the Kalypsys dispenser to achieve a density of 5000 cells/well in all columns except column 1. The plate is incubated at 37deg C at 5% CO2 for 2 hours before 23 nL of compounds are added with the Kalypsys pin tool equipped with a 1,536-pin array containing 10-nL slotted pins (FP1S10, 0.457-mm diameter, 50.8 mm long; V&P Scientific). The control compounds Budesonide and Staurosporine are both added at a concentration of 2mM and Budesonide is also added as a 1:10 titration, starting at 200uM, to achieve dose-response. After an 18-24 hour incubation at 37deg C at 5% CO2, 5ul of medium is added to column 1. Afterwards 1ul of 5x of CellTiter-Fluor (Promega) is added to every well. The plate is then incubated at 37deg C at 5% CO2 for 30 minutes before they are read on the ViewLux (Perkin Elmer) for a fluorescent read Ex=405(10)/Em=525(10) for a 3 second exposure, 2x binning, and high gain. Then 3 uL of 3x BugLite is dispensed into all wells and the plate is incubated at ambient room temperature for 15 minutes. Afterwards another ViewLux read is performed using the clear filter to get a luminescent read with the settings of 40 second exposure, 2x binning, and high gain. Cytotoxicity is assessed through the first fluorescent read and then biochemical activity against Nrf2 is measured in the luminescent read.
# % is scaled to controls: 0 for no effect and ±100 for the full control effect.
row,Compound,"activity change, negative = cytotoxicity"
1,O=[N+]([O-])c1ccc2c(c1)nnn2O,inactive: -0.803%
2,CN(C)C(=O)c1cc([N+](=O)[O-])cc2c1-c1c(cc([N+](=O)[O-])cc1[N+](=O)[O-])C2=O,inactive: -29.9%
3,CN(C(=O)Cc1ccc(Cl)c(Cl)c1)[C@H]1CC[C@@]2(CCCO2)C[C@@H]1N1CCCC1,inactive: -4.63%
4,N#CCCN(C(=O)COC(=O)C(O)(c1ccccc1)c1ccccc1)c1ccc(F)cc1,inactive: 10.6%
5,CN(C(=O)Cc1ccccc1)[C@@H]1CC[C@]2(CCCO2)C[C@H]1N1CCCC1,inactive: -6.26%
6,CCOP1(=S)c2c(C)nn(CCC#N)c2N=C(c2ccc(F)cc2)N1C (stereo unspecified),inactive: 2.74%
7,NC(=O)Nc1ccc([As](=O)(O)O)cc1,inactive: -1.08%
8,Nc1ccccc1[As](=O)(O)c1ccccc1,inactive: -0.624%
9,O=C(O)COc1ccc([As](=O)(O)O)cc1[N+](=O)[O-],inactive: 5.55%
10,CS(=O)(=O)c1cc([N+](=O)[O-])c2no[n+]([O-])c2c1,inactive: -11%
11,CCOP1(=S)c2c(C)nn(CCC#N)c2N=C(c2ccccc2F)N1C (stereo unspecified),inactive: 6.5%
12,O=P(Nc1nccs1)(Oc1ccccc1)Oc1ccccc1,inactive: 11%
13,O=P(Nc1nccs1)(c1ccccc1)c1nc2ccccc2s1 (stereo unspecified),inactive: -9.15%
14,COc1cc(C2NCCC3(OCCO3)C2(C)C)cc(OC)c1OC (stereo unspecified),inactive: 2.61%
15,CCOP(=O)(Nc1cccc2ccccc12)OCC,inactive: -6.78%
16,CCCOP(=S)(Nc1nc(N)cc(=O)[nH]1)OCCC,inactive: 5.43%
17,Cc1ccc(NCCc2c([N+](=O)[O-])cc([N+](=O)[O-])cc2[N+](=O)[O-])cc1,inactive: -16.3%
18,Nc1cccc2c([As](=O)(O)O)cccc12,inactive: -2.61%
19,Cc1cccc(OCC(=O)OC2CN3CCC2CC3)c1 (stereo unspecified),inactive: 6.56%
20,O=[As](O)(c1cccc(O)c1)c1cccc(O)c1,inactive: -4%
21,O=[As](O)(O)c1cccnc1,inactive: 0.607%
22,COc1cc(C(=O)NCC2(N3CCOCC3)CCCCC2)cc(Cl)c1OC(C)C,inactive: -4%
23,CS(=O)(=O)c1ccc(Cl)c(NC(=O)COC(=O)C(O)(c2ccccc2)c2ccccc2)c1,inactive: -6.5%
24,O=C(OC1CN2CCC1CC2)c1ccc(Cl)cc1 (stereo unspecified),inactive: 1.59%
25,CC1(CBr)Cn2c(nc3ccccc3c2=O)S1 (stereo unspecified),inactive: -6.17%
26,CN(C(=O)Cc1ccc(Cl)c(Cl)c1)[C@@H]1CCCC[C@H]1N1CCCC1,inactive: 6.9%

row,Compound,"activity change, negative = cytotoxicity"
1,COc1ccccc1CNC(=O)COC(=O)C(O)(c1ccccc1)c1ccccc1,inactive: 1.25%
2,Clc1n[nH]nc1-c1nn[nH][15n]1,inactive: 1.61%
3,CC(C)(C)C(=O)NC(Sc1ncccn1)C(Cl)(Cl)Cl (stereo unspecified),inactive: 4.58%
4,CCOP(=O)(Nc1ccc(C)cn1)OCC,inactive: 0.325%
5,O=P1(Nc2ccccn2)COc2ccccc2OC1,inactive: 11.2%
6,CCOP(=O)(NC(=NC(C)c1ccccc1)NC(C)c1ccccc1)OCC (stereo unspecified),inactive: -3.63%
7,Cc1ccc(OCC(=O)OC2CN3CCC2CC3)cc1 (stereo unspecified),inactive: 19%
8,O=[As](O)(c1cccs1)c1cccs1,inactive: 2.05%
9,O=P1(Nc2ccc(Br)cn2)COc2ccccc2OC1,inactive: 0.522%
10,NS(=O)(=O)c1cccc(NC(=O)COC(=O)C(O)(c2ccccc2)c2ccccc2)c1,inactive: 2.71%
11,Nc1cccc([As](=O)(O)c2ccccc2)c1,inactive: -0.781%
12,O=P1(Nc2ncccn2)COc2ccccc2OC1,inactive: -8%
13,O=C(/C=C/c1ccccc1)OC1CN2CCC1CC2 (stereo unspecified),inactive: 0.0477%
14,CCCC1OP(=O)(Nc2ccccc2)OCC1CC (stereo unspecified),inactive: -4.16%
15,CN(C)C1(CNC(=O)c2ccc(S(C)(=O)=O)cc2)CCCCC1,inactive: -0.76%
16,Cc1nn(-c2ccccc2)c2c1P(=O)(N1CCOCC1)N(C)C(c1ccccc1)=N2 (stereo unspecified),inactive: 2.34%
17,Cc1ccc(C(=O)OC2CN3CCC2CC3)cc1 (stereo unspecified),inactive: 0.26%
18,O=[N+]([O-])c1ccc(Nc2ccc(Oc3ccc([N+](=O)[O-])cc3[N+](=O)[O-])cc2)c([N+](=O)[O-])c1,inactive: -5.23%
19,O=P(Nc1ccccn1)(c1cccc2ccccc12)c1cccc2ccccc12,inactive: -6.01%
20,Cc1cc(SC(NC=O)C(Cl)(Cl)Cl)ncn1 (stereo unspecified),inactive: 1.49%
21,CCOC(=O)Nc1cccc([As](=O)(O)O)c1,inactive: 12.8%
22,CCCCOc1ccc(C(=O)NCC2(N3CCCCC3)CCCCC2)cc1OC,inactive: -9.62%
23,Cc1cc(SC(NC(=O)c2ccccc2)C(Cl)(Cl)Cl)nc(C(C)C)n1 (stereo unspecified),inactive: 0.575%
24,CC1CCNP(=O)(N(CCCl)CCCl)O1 (stereo unspecified),inactive: -0.021%
25,CCOC(=O)Nc1ccc([As](=O)(O)O)c(O)c1,inactive: 0.166%
26,CCOP(=O)(Nc1cccc2cccnc12)OCC,inactive: -5.31%

row,Compound,"activity change, negative = cytotoxicity"
1,CCC(C)N(CC(C)C)C(=S)SC(NC(C)=O)C(Cl)(Cl)Cl (stereo unspecified),inactive: -19.7%
2,CCOC(=O)c1ccc(NC(=O)C(C)(CCl)SC)cc1 (stereo unspecified),inactive: 0.702%
3,O=C(OC1CN2CCC1CC2)c1cccc([N+](=O)[O-])c1 (stereo unspecified),inactive: -5.37%
4,O=C(COc1ccccc1)OC1CN2CCC1CC2 (stereo unspecified),inactive: 0.17%
5,O=C(Nc1ccncc1[N+](=O)[O-])c1ccc([N+](=O)[O-])cc1[N+](=O)[O-],inactive: -19.3%
6,COP1(=S)c2c(C)nn(CCC#N)c2N=C(c2ccc(F)cc2)N1C (stereo unspecified),inactive: 14.7%
7,COc1ccc(N/C(=N/P(=O)(N2CCOCC2)N2CCOCC2)N2CCOCC2)cc1,inactive: 6.3%
8,O=[N+]([O-])c1cc(Oc2ccc([N+](=O)[O-])cc2C(F)(F)F)cc([N+](=O)[O-])c1,inactive: 0.713%
9,COc1ccc2nc(NP(=O)(c3ccccc3)c3ccccc3)sc2c1,inactive: -1.23%
10,COc1cc(I)ccc1[As](=O)(O)O,inactive: -5.89%
11,O=P1(N(CCCl)CCCl)Nc2ccccc2N1,inactive: 2.09%
12,O=P1(N(CCCl)CCCl)OCCCN1CCCl (stereo unspecified),inactive: 11.8%
13,O=C(OC1CN2CCC1CC2)C12CC3CC(CC(C3)C1)C2 (stereo unspecified),inactive: 4.64%
14,Cc1cc(=O)[nH]c(N[N+](=O)[O-])n1,inactive: 7.85%
15,CC(C)NC(=O)NP(=O)(Oc1ccccc1)Oc1ccccc1,inactive: 0.75%
16,CCN(CC)C(=S)SC(NC=O)C(Cl)(Cl)Cl (stereo unspecified),inactive: -7.09%
17,O=C(OC1CN2CCC1CC2)c1cccc2[nH]cnc12 (stereo unspecified),inactive: 6.85%
18,COC(=O)C1(C)COP(=O)(N2CCCCCC2)OC1 (stereo unspecified),inactive: 0.759%
19,CC(C)c1ccc(OP(=O)(Nc2ccccn2)Oc2ccccc2F)cc1 (stereo unspecified),inactive: -1.12%
20,ClCCSc1nnc(-c2cccnc2)o1,inactive: -2.06%
21,Cc1ccc2nc3c(c(C)c2c1)CC(C(Cl)Cl)S3 (stereo unspecified),inactive: -0.15%
22,Cc1ccc(OP(=O)(Nc2ccc([N+](=O)[O-])cn2)Oc2ccc(C)cc2)cc1,inactive: -1.45%
23,O=[As](O)(c1ccc(O)cc1)c1ccccc1O,inactive: -6.1%
24,C[As](=O)(O)c1cccc(C(=O)O)c1,inactive: 5.92%
